Reference: patent US20240327493A1 (GEORGE MASON UNIVERSITY, priority 2023, published 2024)

System: human PBMCs co-cultured with OVCAR8 cells
Test: Co-culture of OVCAR8 cells and stimulated human PBMCs, 1:10 OVCAR8:PBMC ratio
Format: cell-based
Details: 24 hours, vs untreated co-culture control; for TNFα levels: ELISA, FIG. 10C; for IL-2 levels: FIG. 10B
Description: For this model, PBMCs and cancer cells were both stimulated prior to co-culture to promote expression of PD-1 and PD-L1, respectively.
Stimulation of the PBMCs causes them to release inflammatory cytokines including IL-2 and TNFα,
Therefore, co-culture experiments were repeated using a 1:10 ratio of OVCAR8: PBMCs to increase the dynamic range of the assay and improve statistical confidence. […] (FIG. 10D)
OVCAR8 cells, generously provided by the Gottesman Lab (National Institutes of Health, Bethesda, MD, USA), and MDA-MB-231 cells (American Type Culture Collection, Rockville, MD, USA) were cultured in Gibco RPMI 1640 media (ThermoFisher Scientific, Cat. No. 11-875-093) supplemented with 10% Gibco fetal bovine serum (ThermoFisher Scientific, Cat. No. 10437028), and 1% penicillin/streptomycin (10,000 U/mL pen, 10 mg/mL strcp) from MilliporeSigma (Burlington, MA, USA, Cat. No. P4333). Cells were cultured at 37° C. and 5% CO2. Passage number was kept below 3 for co-culture assay. Human peripheral blood mononuclear cells were purchased frozen from […] Technologies (Vancouver, Canada, Cat. No. 70025.2) from two female donors. PBMCs were thawed according to manufacturer's instructions one day before co-culture and cultured in the same media and conditions as cancer cell lines.
For co-culture experiments with excess PBMCs ratios, OVCAR8 cells were seeded at a density of 2×10^4 cells/mL on a 24-well plate and allowed to adhere overnight. The next day, cells were stimulated with 100 ng/mL IFNγ and two vials of human PBMCs were thawed. On Day 3, concentrations of PBMCs and OVCAR8 cells (harvested from a control well) were measured using the QuadCount Automated Cell Counter. The concentration of PBMCs required for a 1:10 OVCAR8:PBMC ratio was calculated from the OVCAR8 concentration. PBMCs were plated on a separate 24-well plate (1 mL/well) and stimulated with 5 μg/mL of anti-CD3 and 5 μg/mL of anti-CD28 for 30 minutes before drug treatment. […] After 30 minutes, media was removed from OVCAR8 wells without treatment, and replaced with 1 mL of treated PBMCs. After 24 hours, the supernatants were collected from each well, and centrifuged at 10,000×g for 5 minutes to remove any remaining cells.
For experiments analyzed via IL-2 PCR-ELISA, the levels of IL-2 in the collected supernatants were measured using the IL-2 Human ProQuantum Immunoassay Kit (ThermoFisher Scientific, Cat. No. A35603). Briefly, samples from co-culture experiments with excess OVCAR8 ratios were diluted 1:10 in assay buffer, and samples from co-culture experiments with excess PBMC ratios were diluted 1:5 in assay buffer. […]
Remaining samples from experiments with excess PBMC ratios were analyzed using TNFα (Cat. No. 430204) ELISA MAX Deluxe Sets (BioLegend, San Diego, CA, USA) according to manufacturer's instructions. […]

For “rPD-L1: recombinant, full-length PD-L1 (R&D systems), control in the co-culture model [reference compound]”, the TNFα levels was “significantly decreased”, the TNFα levels (listed as recombinant PD-L1) was “significantly decrease cytokine levels” and the IL-2 levels was “significantly decreased”. The IL-2 levels (listed as recombinant PD-L1) was “significantly decrease cytokine levels”.
